# pIC50: −log10 of the molar value.
# Legend:
# TrxR1 = target: T1, TrxR1 (Rattus norvegicus, UniProt O89049); conditions: read-out: IC50 in Trx-coupled insulin reduction; NADPH-reduced TrxR incubated 30 min
# T1 sequence (O89049 1-499): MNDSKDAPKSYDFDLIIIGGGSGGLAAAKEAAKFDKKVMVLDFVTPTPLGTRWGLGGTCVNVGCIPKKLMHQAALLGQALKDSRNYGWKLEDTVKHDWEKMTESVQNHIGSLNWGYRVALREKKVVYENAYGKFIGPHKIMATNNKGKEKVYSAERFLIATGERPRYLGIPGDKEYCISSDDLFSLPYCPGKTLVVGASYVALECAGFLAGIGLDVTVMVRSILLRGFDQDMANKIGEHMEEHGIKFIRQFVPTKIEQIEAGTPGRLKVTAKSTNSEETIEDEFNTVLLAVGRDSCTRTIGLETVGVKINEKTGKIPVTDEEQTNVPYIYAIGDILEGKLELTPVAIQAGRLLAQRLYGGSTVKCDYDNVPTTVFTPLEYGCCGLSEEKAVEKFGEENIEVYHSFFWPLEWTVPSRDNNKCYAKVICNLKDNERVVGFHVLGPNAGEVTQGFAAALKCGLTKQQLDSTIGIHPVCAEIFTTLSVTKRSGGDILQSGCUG
# wild type TrxR1 = target: T2, wild type TrxR1 (Rattus norvegicus, UniProt O89049); experiment: TrxR1 DTNB reduction assay
# T2 sequence (O89049 1-499): T1 sequence (O89049 1-499)
substance,measurement,setting,value
Sodium copper chlorophyll [chlorophyllin],pIC50,TrxR1,5.04
same,Time dependence of TrxR1 inhibition,"wild type TrxR1; NADPH pre-reduced TrxR1, DTNB as substrate",time-dependent inhibition
same,Reversibility of TrxR1 inhibition after desalting,wild type TrxR1; NAP-5 column desalting after incubation,irreversible
same,Sensitivity of oxidized TrxR1 to inhibition,"wild type TrxR1; TrxR1 not pre-reduced by NADPH, 1 h incubation",insensitive
same,"Kinact, second-order rate of inhibition of DTNB reducing activity",wild type TrxR1; chlorophyllin 0 to 4 µM,116 ± 8.17 M⁻¹ s⁻¹
same,pIC50,"wild type TrxR1; read-out: IC50 on TrxR1's DTNB reducing activity, NADPH pre-reduced TrxR1, DTNB as substrate",5.58

# Reference: publication PMC8615155, “Chlorophyllin Inhibits Mammalian Thioredoxin Reductase 1 and Triggers Cancer Cell Death” (Antioxidants, 2021)
